For test [1], the target named is Mu-type opioid receptor (Cavia porcellus) (UniProt P97266). In words: Agonist activity at mu opioid receptor in guinea pig ileum assessed as inhibition of electrically-stimulated muscle contraction.
A short description of test [2]: Selectivity ratio of Ki for kappa opioid receptor in guinea pig brain membranes to Ki for mu opioid receptor in rat brain membranes.

Protein sequences, listed by entry. Tags and fused reporters are not part of them.
UniProt P97266, whole entry: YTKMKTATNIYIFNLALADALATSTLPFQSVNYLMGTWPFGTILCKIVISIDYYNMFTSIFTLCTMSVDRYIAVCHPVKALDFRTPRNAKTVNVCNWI

Structures are written as SMILES.

Consider `O=CN1CC[C@]23c4c5ccc(O)c4O[C@H]2[C@@H](O)C=C[C@H]3[C@H]1C5`, for which the Ke in test [1] stood at 1240 nM. The Ratio Ki in test [2] was 1.

Source of the values: ChEMBL document CHEMBL3352423, “'Carba'-carfentanil (trans isomer): a μ opioid receptor (MOR) partial agonist with a distinct binding mode” (2014).
